## Antibody variant affinities, Ab-95 light chain, assay 2

Target: peptide PDVDLGDISGINAS, taken from heptad repeat 2 (HR2) of SARS-CoV-2 spike.

The variants keep the heavy chain, the linker and the frameworks of Ab-95 (scFv order VH, a (GGGGS)3 linker, VL).
VH: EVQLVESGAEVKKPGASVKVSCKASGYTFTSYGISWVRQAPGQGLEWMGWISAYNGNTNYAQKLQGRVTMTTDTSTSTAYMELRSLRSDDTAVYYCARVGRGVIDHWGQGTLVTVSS
VL: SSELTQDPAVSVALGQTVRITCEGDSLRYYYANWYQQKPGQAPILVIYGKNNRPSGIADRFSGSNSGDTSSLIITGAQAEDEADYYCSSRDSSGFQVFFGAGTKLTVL

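The parent was found by panning a naive human phage display library on the peptide. The library (AAYL52) carries one to three amino acid substitutions per variant, with no insertions or deletions. Affinity was read by AlphaSeq, a pooled yeast mating assay with surface-displayed partners. After mating in shaken culture at 30 °C for 16 h, diploids were selected and their barcode pairs sequenced. Scores were corrected for input abundance and mapped to Kd with protein pairs of known affinity run in the same pool. Mating was done three times.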

Substitutions are numbered in sequence along the VL above, starting at 1 (not Kabat). The read-out is the apparent dissociation constant on a log10 scale (nM): the lower, the stronger. The mean shown is taken over the replicates in which the pair was detected. A pair that was not seen in any replicate is written "not detected"; this usually means weak binding, but a binder can also be missed. As a blank, each scFv also met three strains without target: over library AAYL52, 28% of these pairings were detected, typically at 3.91 and seldom below 2.90.

changes	mean, log10 nM	detected
N33Q G49Y F95T	4.08	3 of 3
G24R P54L S92W	not detected	0 of 3
E23W K50C S88I	3.17	3 of 3
Y29P N52A F95K	3.29	3 of 3
D25S G49Q K50S	3.93	2 of 3
G24Y D25N R28Y	not detected	0 of 3
N51W N52Q R90E	3.59	2 of 3
E23W P54C S55K	3.06	1 of 3
G24L S88F V97S	4.50	2 of 3
A32H N51Y F95E	not detected	0 of 3
A32C G49I R90Q	3.16	1 of 3
E23C G24Q L27W	5.05	1 of 3
S26D P54Y	4.06	1 of 3
Y30R S92W S93C	2.69	2 of 3
G49C S55F Q96W	3.93	2 of 3
E23A S88R Q96W	2.34	3 of 3
A32N N33T Q96A	not detected	0 of 3
Y29D N33G	3.91	2 of 3
A32Q Q96T F98R	3.58	3 of 3
E23S S92I Q96T	3.02	3 of 3
G49Y N52T F98R	5.31	1 of 3
D25F N51S N52R	3.51	2 of 3
S26R N33D G49P	4.23	1 of 3
E23A Q96T V97M	2.60	3 of 3
S88A S92Q F98P	2.06	3 of 3
S26Q S93R V97N	not detected	0 of 3
P54I V97G	2.56	3 of 3
E23Q S88C	2.28	3 of 3
S26H G49D D91E	2.40	2 of 3
A32G N33K R53M	4.56	1 of 3
E23T K50T D91H	3.19	3 of 3
L27A N52Q S88R	4.27	2 of 3

Further variants, results first:

mean, log10 nM	detected	changes
1.59	3 of 3	Y30A N52W D91T
not detected	0 of 3	R53E S89M
3.61	2 of 3	S88Y S93G F95V
not detected	0 of 3	K50W D91E F98Y
3.91	3 of 3	S26R Y30M G94N
4.93	1 of 3	E23M N51L S93F
1.84	3 of 3	Y30H Y31L N52W
3.05	3 of 3	R28V Y31P S88I
4.16	2 of 3	R28N A32N G94F
3.11	3 of 3	Y29G A32K R90F
4.11	2 of 3	R28D P54E S89Y
3.59	2 of 3	A32D S88A Q96P
3.14	3 of 3	R28V S55H S88G
3.53	2 of 3	E23P S93P V97I
not detected	0 of 3	E23L S92H G94W
2.84	3 of 3	E23D R90H G94C
3.29	2 of 3	K50F D91A
3.84	2 of 3	Y31W N33V F95A
not detected	0 of 3	Y31R G49H G94D
1.88	3 of 3	S55A D91M S92C
3.17	2 of 3	S89K S92H S93Q
0.80	3 of 3	Y30N R90F F98P
3.16	3 of 3	D25L K50R Q96P
4.15	2 of 3	D91R S93F G94I
5.45	1 of 3	R28E R90L G94N
3.05	1 of 3	G24V S55R D91H
not detected	0 of 3	A32Q D91S G94H
2.54	3 of 3	P54S G94V F98M
3.02	3 of 3	E23L S55E R90C
3.77	1 of 3	S88N R90D Q96G
2.69	3 of 3	A32F K50D Q96Y
3.69	2 of 3	Y31H G49W

The opening 7 entries, copied out:

{"changes": "N33Q G49Y F95T", "mean, log10 nM": "4.08", "detected": "3 of 3"}
{"changes": "G24R P54L S92W", "mean, log10 nM": "not detected", "detected": "0 of 3"}
{"changes": "E23W K50C S88I", "mean, log10 nM": "3.17", "detected": "3 of 3"}
{"changes": "Y29P N52A F95K", "mean, log10 nM": "3.29", "detected": "3 of 3"}
{"changes": "D25S G49Q K50S", "mean, log10 nM": "3.93", "detected": "2 of 3"}
{"changes": "G24Y D25N R28Y", "mean, log10 nM": "not detected", "detected": "0 of 3"}
{"changes": "N51W N52Q R90E", "mean, log10 nM": "3.59", "detected": "2 of 3"}

From the AlphaSeq antibody data of Engelhart et al. 2022 (doi:10.1038/s41597-022-01779-4), copy in the FLAb collection.